# Values quoted from earlier work as cited in PMC7346179, “Fe Porphyrin-Based SOD Mimic and Redox-Active Compound, (OH)FeTnHex-2-PyP^4+, in a Rodent Ischemic Stroke (MCAO) Model: Efficacy and Pharmacokinetics as Compared to Its Mn Analogue, (H2O)MnTnHex-2-PyP^5+” (Antioxidants, 2020).
# Conditions: silica plates, acetonitrile/KNO3(sat)/water = 8:1:1; cited from earlier work
substance,measurement,value
monohydroxo Fe(III) meso-tetrakis(N-n-hexylpyridinium-2yl)porphyrin [FeHex],Rf (thin-layer chromatographic lipophilicity),0.597
